According to patent US6468991B1, “Method of treating rhinoviral infections” (Cyclis Pharmaceuticals, Inc., priority 1997, dated 2002):

Tested on: A-549 (human lung carcinoma) cells
Assay: Cytotoxicity by microscopic morphological changes in uninfected toxicity control wells

Measured: CD50

2′,3′-cyclophosphateadenylyl(2′,5′)adenylyl-(2′,5′)adenosine [Papirine AIII]
>320 µM: Expt. 1, 5 days' incubation at 37° C., drug changed every 24 hours, A549 cells | Expt. 1, 5 days' incubation at 37° C., drug present without medium change, A549 cells
>160 µM: Expt. 2, 3 days' incubation at 37° C., drug changed every 24 hours, A549 cells | Expt. 2, 3 days' incubation at 37° C., drug present without medium change, A549 cells | Table 2, second experiment, drug changed every 24 hours | Table 2, second experiment, drug present without medium change
